For 3 compounds, IC50 results are on record in ChEMBL document CHEMBL1155011, “Structure-activity relationships of the cycloalkanol ethylamine scaffold: discovery of selective norepinephrine reuptake inhibitors” (J Med Chem, 2008).

Protein sequences, listed by entry. Tags and fused reporters are not part of them.
UniProt P31645, whole entry: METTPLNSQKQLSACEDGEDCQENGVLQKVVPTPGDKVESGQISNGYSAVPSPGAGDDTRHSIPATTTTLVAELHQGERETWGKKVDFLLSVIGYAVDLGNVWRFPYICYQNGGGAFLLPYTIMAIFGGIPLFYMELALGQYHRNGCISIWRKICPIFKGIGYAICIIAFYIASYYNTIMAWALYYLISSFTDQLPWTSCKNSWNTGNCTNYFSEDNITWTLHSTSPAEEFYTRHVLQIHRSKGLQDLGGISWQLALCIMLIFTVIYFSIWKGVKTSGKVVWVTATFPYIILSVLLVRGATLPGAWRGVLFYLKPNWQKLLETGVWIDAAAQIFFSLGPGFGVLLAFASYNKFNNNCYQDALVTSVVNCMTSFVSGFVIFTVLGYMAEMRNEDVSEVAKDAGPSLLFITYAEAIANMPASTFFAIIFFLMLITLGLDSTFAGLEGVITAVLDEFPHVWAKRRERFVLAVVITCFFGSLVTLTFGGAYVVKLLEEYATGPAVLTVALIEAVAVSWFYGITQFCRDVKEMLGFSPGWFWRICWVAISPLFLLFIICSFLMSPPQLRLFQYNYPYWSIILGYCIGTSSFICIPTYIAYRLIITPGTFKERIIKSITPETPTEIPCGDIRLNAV

The target of the test is Sodium-dependent serotonin transporter (Homo sapiens, UniProt P31645). Format: cell-based, JAR.
Regarding `CN(C)CC(c1cccc(Cl)c1)C1(O)CCCCC1` (stereo not drawn), the IC50 was 292 nM. With `CN(C)C[C@H](c1cccc(Cl)c1)C1(O)CCCCC1` the figure was 155 nM. The value for `CN(C)C[C@@H](c1cccc(Cl)c1)C1(O)CCCCC1` was 405 nM.
